Earlier results on 2 substances are cited in patent US20050159359A1, “Methods and compositions for derepression of IAP-inhibited caspase” (The Burnham Institute, priority 2001, published 2005).

The target in this series is caspase-3 and -7. The conditions noted are these: reported; read-out: Ki for inhibition of caspase-3 and -7; cited from earlier work.

In the case of “XIAP: X chromosome linked IAP, human inhibitor of apoptosis protein”, the inhibitory constant (Ki) is 0.2 to 10 nM.
On to “cIAP1: cellular IAP protein, human inhibitor of apoptosis protein”, for which the Ki was 0.2 to 10 nM.

In general, Ki refers to the dissociation constant of the complex between target and ligand, obtained from inhibition or displacement.
